Test results as given in PubChem BioAssay AID637 (SRMLSC, 2007).
This is a selection; strong and weak results do not stand in their true shares. Activity calls are given as the source filed them. Rule as the data show it: active = inhibition above about 30%; inactive = the rest.

Test: growth suppression of yeast trafficking mutant, preliminary HTS, modulators of trafficking downstream of Golgi apparatus project, 1536-format plate, OD 615 nm (AID 637)
Settings: yeast transport mutant growth, absorbance 615 nm, 18 h; active compounds read high

| SMILES | inhibition |
| --- | --- |
| CP(=O)(Nc1ccc2c(c1)OCCO2)Oc1ccccc1 (stereo not given) | inactive: 3.83% |
| CN(C)CCOC(=O)C(O)(c1ccccc1)C1CCCCC1 (stereo not given) | inactive: 2.95% |
| CP(=O)(Nc1ccccn1)Oc1ccccc1 (stereo not given) | inactive: 6.07% |
| CP(=S)(Nn1cnnc1)Oc1ccccc1 (stereo not given) | inactive: 0.48% |
| Cc1ccc(C)c(NP(C)(=O)Oc2ccccc2)c1 (stereo not given) | inactive: 7% |
